Read-outs that look alike come from different tables or passages of the source.
How the values were obtained:
[1] = molecular target: recombinant truncated GDP-loaded K-Ras (1-166) (Homo sapiens, UniProt P01116)
[2] = system: H358 human lung cancer cells with mutated K-Ras; test: H358 tumor growth in nude mice; format: in vivo; conditions: 10 mg/kg s.c. every second day for 20 days
Method: 2×10^6 H358 human lung cancer cells with mutated K-Ras were implanted subcutaneously (s.c.) in nude mice. When tumors reached measurable size, 10 mg/kg kR-4A-8 or control (DMSO in buffer) was injected s.c. near the tumor every second day for 20 days.

Row | Substance | Kd ([1]; DMPC/DHPC bicelles) [µM] | Kd ([1]; DPC micelles) [µM] | toxicity during treatment or necropsy [2]
1 | Ac-C(Fluo)KKKKKSKTKK(ε-Pal) [kR-4B-14] | 1.3 ± 0.1 | 10.8 ± 1.6 | –
2 | Ac-C(Fluo)KTPGLNVKIKKK(ε-Pal) [kR-4A-11] | – | 11.8 ± 1.3 | –
3 | Ac-C(Fluo)ESGPGLNLNSLNKK(ε-Pal) [HR-6] | – | > 100 | –
4 | Ac-GLNVKIKKK-e-Pal [kR-4A-8] | – | – | No toxicity was detected

Source: patent US9328142B2, “Lipopeptide inhibitors of RAS oncoproteins” (The United States of America, as represented by The …, priority 2011, dated 2016)
